Here are results for one compound from PubChem BioAssay AID1199 (EPA DSSTox, 2008).

The data set concerns mouse carcinogenicity bioassay, TD50 from CPDB. Briefly: DSSTox (CPDBAS) Carcinogenic Potency Database Summary Mouse Bioassay Results. To be noted: TD50_Mouse_Note: no positive results; TargetSites_Mouse_Female: no positive results. From the text:
The Carcinogenic Potency Database (CPDB) is a unique and widely used international resource of the results of over 6500 chronic, long-term animal cancer tests on over 1500 chemical substances. The CPDB provides easy access to the bioassay literature, with qualitative and quantitative analyses of both positive and negative experiments that have been published over the past 50 years in the general literature and by the National Cancer Institute/National Toxicology Program. The CPDB standardizes the diverse literature of cancer bioassays that vary widely in protocol, histopathological examination and nomenclature, and in the published author's choices of what information to provide in their papers. Results are reported in the CPDB for tests in rats, mice, hamsters, dogs, and nonhuman primates, and are based on the most positive result among all experiments for each sex-species. The DSSTox CPDBAS (all species) file incorporates data from the CPDB Summary Tables for the full list of over 1500 chemical substances tested in at least one species. Summary bioassay results for Mouse (TD50, tumor sites, male, female, both sexes) are provided in the CPDB Summary Tables and the DSSTox CPDBAS file for over 1000 chemical substances.
TD50 is a standardized quantitative measure of carcinogenic potency (analogous to an LD50) and is reported in the CPDB Summary Table for each species. […]

Some tests of the compounds listed are not included; inactive here does not mean inactive elsewhere. Activity calls are given as the source filed them.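 The calls were made as follows: active = a tumour-causing dose and a tumour site recorded for mice in at least one sex group; inconclusive = only government mouse studies exist and were judged inadequate; inactive = mouse studies exist but none gave tumours.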

In the case of `N#CC(C#N)=Cc1ccccc1Cl`, the outcome was “inactive; no positive results”.
